How the values were obtained:
[1] = target: T1, μ-opioid receptor (Homo sapiens, UniProt P35372); assay: μ-opioid receptor [35S]GTPγS functional assay, HEK-293 or CHO cells; assay type: biochemical
[2] = target: T1, μ-opioid receptor; assay: μ-opioid receptor β-Arr2 activity response, U2OS cells; assay type: cell-based

The chains behind the UniProt entries cited, without tags or fusion partners.
UniProt P35372, whole entry: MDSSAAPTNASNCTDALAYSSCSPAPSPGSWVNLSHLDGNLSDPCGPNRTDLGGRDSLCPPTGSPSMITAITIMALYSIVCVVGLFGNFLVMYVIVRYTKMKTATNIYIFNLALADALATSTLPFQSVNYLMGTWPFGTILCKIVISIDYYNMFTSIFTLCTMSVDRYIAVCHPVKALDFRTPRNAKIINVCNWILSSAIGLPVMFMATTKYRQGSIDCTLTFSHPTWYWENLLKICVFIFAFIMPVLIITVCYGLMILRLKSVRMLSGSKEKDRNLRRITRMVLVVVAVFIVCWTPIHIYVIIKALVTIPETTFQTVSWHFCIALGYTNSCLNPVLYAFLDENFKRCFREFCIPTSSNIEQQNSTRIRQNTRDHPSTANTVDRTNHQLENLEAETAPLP

C[C@H]1[C@H]2Cc3ccc(O)cc3[C@]1(CCN1CCC(N3C(=O)Cc4ccccc43)CC1)CCN2C
EC50 ([1]; read-out: GTPγS μ EC50): 12.1 nM
GTPγS μ Emax ([1]; relative to DAMGO): 108.7 ± 2.30%
β-Arr2 μ Emax [2]: 95.0 ± 3.79%
EC50 ([2]; read-out: β-Arr2 μ EC50): 3.85 nM
